# According to ChEMBL document CHEMBL1201862, “PubChem BioAssay data set” (2004):
# Sequences of proteins named here, by UniProt entry; tags and fusion partners are left off.
# UniProt Q9UIF8, whole entry: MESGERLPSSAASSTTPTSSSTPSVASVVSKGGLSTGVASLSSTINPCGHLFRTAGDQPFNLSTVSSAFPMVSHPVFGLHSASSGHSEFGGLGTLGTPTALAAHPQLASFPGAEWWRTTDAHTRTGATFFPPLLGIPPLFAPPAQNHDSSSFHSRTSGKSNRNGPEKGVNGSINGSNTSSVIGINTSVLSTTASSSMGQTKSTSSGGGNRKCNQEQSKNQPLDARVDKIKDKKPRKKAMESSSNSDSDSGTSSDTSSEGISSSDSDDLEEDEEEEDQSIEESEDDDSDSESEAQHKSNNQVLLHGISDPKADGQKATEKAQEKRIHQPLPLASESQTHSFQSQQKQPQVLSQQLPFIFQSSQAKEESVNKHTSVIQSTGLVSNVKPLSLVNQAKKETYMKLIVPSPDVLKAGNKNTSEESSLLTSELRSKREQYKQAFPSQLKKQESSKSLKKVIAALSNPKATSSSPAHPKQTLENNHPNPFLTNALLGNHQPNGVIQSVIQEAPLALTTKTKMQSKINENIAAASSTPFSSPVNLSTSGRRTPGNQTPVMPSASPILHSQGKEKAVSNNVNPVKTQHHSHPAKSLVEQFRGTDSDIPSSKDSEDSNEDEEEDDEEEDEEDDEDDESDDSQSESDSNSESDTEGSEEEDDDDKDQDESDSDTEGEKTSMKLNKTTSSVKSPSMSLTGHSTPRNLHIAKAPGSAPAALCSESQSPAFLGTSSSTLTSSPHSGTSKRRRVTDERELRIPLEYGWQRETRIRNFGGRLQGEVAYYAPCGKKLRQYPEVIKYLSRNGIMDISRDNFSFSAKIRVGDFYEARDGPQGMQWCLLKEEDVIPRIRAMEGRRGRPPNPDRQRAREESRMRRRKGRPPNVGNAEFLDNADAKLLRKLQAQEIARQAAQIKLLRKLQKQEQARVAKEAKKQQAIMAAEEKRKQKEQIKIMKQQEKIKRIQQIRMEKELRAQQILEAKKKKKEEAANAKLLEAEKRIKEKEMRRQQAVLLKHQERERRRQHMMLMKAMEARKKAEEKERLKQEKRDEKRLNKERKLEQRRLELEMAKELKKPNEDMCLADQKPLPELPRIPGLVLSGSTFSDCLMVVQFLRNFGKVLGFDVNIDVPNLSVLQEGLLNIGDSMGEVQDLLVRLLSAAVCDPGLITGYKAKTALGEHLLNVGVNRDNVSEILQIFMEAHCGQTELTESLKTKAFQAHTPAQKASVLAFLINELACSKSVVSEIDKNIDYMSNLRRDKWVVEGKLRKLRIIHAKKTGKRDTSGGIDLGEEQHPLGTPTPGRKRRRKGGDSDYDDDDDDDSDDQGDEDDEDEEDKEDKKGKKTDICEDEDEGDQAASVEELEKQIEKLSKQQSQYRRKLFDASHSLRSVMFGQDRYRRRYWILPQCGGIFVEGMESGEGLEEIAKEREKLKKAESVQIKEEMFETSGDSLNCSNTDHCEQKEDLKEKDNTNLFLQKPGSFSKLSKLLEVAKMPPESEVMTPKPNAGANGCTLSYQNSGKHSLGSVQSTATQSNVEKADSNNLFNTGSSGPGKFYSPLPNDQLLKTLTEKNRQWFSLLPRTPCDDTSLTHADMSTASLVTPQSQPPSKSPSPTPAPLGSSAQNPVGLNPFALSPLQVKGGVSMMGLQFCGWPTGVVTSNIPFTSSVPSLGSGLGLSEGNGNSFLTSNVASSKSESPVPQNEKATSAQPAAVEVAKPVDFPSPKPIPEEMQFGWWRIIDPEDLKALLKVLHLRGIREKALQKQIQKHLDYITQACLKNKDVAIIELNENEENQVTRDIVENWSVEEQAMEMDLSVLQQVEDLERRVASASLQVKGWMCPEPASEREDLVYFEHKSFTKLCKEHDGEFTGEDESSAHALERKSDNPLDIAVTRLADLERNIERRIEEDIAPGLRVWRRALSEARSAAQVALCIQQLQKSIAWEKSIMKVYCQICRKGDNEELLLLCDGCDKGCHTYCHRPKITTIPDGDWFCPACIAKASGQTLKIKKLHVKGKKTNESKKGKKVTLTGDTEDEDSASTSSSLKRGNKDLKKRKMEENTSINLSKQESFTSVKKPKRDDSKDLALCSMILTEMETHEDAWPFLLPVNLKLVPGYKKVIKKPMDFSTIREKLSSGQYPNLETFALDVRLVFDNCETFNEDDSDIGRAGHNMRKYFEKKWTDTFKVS
# UniProt Q99700, whole entry: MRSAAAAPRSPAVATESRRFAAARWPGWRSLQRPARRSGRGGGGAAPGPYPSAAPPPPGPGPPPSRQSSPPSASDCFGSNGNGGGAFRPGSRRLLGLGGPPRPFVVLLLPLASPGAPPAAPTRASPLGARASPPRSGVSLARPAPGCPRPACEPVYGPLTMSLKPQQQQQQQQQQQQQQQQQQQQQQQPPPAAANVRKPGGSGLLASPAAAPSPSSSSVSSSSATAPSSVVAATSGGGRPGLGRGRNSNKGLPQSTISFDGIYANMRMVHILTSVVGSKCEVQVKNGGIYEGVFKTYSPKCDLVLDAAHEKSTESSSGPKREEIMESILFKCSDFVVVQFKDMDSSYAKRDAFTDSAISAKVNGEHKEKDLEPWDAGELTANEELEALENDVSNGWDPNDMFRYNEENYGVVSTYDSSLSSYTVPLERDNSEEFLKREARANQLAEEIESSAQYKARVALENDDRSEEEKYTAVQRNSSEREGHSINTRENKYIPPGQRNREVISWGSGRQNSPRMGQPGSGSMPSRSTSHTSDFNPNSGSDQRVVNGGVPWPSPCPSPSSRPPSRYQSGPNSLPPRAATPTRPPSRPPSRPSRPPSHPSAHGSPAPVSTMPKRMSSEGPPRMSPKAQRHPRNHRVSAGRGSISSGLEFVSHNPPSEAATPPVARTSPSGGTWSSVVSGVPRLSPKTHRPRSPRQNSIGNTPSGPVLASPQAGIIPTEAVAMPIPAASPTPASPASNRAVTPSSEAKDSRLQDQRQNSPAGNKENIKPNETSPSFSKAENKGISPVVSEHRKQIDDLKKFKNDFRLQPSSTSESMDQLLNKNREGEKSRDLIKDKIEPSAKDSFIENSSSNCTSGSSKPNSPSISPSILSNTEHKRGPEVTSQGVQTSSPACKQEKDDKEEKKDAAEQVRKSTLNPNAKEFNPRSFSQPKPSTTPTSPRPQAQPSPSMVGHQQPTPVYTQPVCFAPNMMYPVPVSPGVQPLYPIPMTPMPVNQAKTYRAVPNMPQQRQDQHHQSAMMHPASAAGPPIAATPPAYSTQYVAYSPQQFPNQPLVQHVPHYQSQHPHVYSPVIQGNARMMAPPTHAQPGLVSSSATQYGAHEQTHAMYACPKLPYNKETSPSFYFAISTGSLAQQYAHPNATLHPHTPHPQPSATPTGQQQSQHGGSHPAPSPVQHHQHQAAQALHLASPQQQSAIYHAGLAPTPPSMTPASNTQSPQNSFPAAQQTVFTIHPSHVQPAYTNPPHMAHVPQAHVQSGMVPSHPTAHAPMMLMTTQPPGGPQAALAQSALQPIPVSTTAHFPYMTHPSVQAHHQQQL
# The entries are a selection whose mix differs from that of the whole data set. These assays gave more results; the selection is not random. For some of these results: Results with a measured potency or affinity are listed apart. Some of the results follow. The source made the active and inactive calls. Unless noted, no cut-off for these calls is given here.
# How the values were obtained:
# [1] = target: T1, 4'-phosphopantetheinyl transferase ffp (Bacillus subtilis) (UniProt Q9F4F7); experiment: qHTS Assay for Inhibitors of Bacillus subtilis Sfp phosphopantetheinyl transferase (PPTase).; type: functional
# T1 sequence (whole entry): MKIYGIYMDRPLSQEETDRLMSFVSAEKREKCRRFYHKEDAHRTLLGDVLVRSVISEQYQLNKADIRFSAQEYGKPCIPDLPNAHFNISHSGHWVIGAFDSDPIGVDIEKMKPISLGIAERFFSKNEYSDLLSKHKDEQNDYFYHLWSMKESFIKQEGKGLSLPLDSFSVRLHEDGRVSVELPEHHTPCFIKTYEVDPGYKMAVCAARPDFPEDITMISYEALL
# [2] = target: T2, Inositol monophosphatase 1 (Rattus norvegicus) (UniProt P97697); experiment: qHTS Assay for Identifying the Cell-Membrane Permeable IMPase Inhibitors: Potentiation with Lithium. [Related pubchem assays: 901 ]; type: functional
# T2 sequence (whole entry): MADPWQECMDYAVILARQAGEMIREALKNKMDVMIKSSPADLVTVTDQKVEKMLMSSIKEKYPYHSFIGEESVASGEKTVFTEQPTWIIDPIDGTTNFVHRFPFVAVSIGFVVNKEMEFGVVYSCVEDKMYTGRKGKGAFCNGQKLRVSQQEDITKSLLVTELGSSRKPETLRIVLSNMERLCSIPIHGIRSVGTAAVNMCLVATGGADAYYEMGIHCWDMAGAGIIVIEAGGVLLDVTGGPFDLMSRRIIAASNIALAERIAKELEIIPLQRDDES
# [3] = target: Bromodomain adjacent to zinc finger domain protein 2B (Homo sapiens) (UniProt Q9UIF8); experiment: qHTS Assay for Inhibitors of BAZ2B. [Related pubchem assays (depositor defined):AID504391]; type: functional
# [4] = target: T3, Histone-lysine N-methyltransferase EHMT2 (Homo sapiens) (UniProt Q96KQ7); experiment: qHTS Assay for Inhibitors of Histone Lysine Methyltransferase G9a. [Related pubchem assays (depositor defined):AID504404]; type: functional
# T3 sequence (whole entry): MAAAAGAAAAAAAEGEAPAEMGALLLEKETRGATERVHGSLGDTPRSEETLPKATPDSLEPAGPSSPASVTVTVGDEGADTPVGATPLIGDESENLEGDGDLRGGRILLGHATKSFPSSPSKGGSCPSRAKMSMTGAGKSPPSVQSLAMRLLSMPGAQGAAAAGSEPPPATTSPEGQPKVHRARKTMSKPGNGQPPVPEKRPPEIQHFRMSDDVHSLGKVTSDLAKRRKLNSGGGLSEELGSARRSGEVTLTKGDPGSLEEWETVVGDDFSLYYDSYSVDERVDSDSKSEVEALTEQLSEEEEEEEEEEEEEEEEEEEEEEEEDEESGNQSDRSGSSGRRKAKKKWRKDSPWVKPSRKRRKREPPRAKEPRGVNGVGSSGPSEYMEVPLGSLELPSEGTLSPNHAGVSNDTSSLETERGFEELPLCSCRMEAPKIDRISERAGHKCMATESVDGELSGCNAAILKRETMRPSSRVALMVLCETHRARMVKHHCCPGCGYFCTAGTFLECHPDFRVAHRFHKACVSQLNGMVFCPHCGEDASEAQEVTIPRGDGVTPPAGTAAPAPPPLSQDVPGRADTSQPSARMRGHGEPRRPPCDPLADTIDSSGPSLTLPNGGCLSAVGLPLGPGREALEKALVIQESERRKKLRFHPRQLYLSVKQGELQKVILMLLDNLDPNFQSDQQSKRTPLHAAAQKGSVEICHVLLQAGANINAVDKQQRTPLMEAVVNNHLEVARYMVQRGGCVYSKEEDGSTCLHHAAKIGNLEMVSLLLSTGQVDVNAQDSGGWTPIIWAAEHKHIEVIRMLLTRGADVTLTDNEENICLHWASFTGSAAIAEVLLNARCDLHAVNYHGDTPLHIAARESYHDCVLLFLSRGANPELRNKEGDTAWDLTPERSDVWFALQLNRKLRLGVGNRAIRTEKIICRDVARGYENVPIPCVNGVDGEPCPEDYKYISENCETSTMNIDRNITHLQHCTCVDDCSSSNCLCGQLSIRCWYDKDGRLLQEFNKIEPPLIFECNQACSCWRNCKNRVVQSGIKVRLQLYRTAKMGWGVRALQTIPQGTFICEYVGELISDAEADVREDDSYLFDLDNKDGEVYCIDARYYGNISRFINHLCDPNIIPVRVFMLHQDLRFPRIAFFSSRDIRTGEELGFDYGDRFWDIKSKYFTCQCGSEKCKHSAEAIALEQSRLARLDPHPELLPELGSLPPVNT
# [5] = target: T4, Aldehyde dehydrogenase 1A1 (Homo sapiens) (UniProt P00352); experiment: qHTS Assay for Inhibitors of Aldehyde Dehydrogenase 1 (ALDH1A1). [Related pubchem assays: 1030 (qHTS Validation Assay for Inhibitors of aldehyde dehydrogenase 1 (ALDH1A1))]; type: functional
# T4 sequence (whole entry): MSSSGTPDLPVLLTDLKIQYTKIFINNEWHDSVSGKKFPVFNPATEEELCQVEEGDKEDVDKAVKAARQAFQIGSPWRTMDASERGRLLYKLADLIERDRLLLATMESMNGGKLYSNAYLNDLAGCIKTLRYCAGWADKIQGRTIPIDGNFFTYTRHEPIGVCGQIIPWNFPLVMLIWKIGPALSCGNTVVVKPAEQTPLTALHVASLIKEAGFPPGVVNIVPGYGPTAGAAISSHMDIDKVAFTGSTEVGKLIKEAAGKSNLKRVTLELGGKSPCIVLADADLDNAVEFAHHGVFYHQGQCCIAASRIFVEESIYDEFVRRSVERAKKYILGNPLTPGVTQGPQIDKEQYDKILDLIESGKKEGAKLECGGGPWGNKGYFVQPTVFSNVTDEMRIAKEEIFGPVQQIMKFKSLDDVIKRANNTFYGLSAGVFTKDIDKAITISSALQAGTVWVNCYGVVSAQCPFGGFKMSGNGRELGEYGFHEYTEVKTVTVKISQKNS
# [6] = target: T5, Thioredoxin reductase 1, cytoplasmic (Rattus norvegicus) (UniProt O89049); experiment: qHTS Assay for Substrates of Mammalian Selenoprotein Thioredoxin Reductase 1 (TrxR1): qHTS. [Related pubchem assays (depositor defined):AID488771]; type: functional
# T5 sequence (whole entry): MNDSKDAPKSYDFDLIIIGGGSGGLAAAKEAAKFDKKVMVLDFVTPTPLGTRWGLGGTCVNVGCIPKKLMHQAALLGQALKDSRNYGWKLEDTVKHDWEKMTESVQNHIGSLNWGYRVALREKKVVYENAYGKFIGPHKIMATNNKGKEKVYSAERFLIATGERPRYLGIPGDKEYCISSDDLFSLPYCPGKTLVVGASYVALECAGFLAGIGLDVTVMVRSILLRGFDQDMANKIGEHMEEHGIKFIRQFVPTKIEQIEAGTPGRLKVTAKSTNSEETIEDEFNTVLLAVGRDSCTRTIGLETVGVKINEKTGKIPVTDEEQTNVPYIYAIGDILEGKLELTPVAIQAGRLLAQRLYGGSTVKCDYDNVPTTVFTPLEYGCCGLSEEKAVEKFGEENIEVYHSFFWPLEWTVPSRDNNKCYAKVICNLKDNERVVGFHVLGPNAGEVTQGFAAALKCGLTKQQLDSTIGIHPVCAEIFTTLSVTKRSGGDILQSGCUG
# [7] = target: T6, Glutaminase kidney isoform, mitochondrial (Homo sapiens) (UniProt O94925); experiment: qHTS for Inhibitors of Glutaminase (GLS).; type: functional
# T6 sequence (whole entry): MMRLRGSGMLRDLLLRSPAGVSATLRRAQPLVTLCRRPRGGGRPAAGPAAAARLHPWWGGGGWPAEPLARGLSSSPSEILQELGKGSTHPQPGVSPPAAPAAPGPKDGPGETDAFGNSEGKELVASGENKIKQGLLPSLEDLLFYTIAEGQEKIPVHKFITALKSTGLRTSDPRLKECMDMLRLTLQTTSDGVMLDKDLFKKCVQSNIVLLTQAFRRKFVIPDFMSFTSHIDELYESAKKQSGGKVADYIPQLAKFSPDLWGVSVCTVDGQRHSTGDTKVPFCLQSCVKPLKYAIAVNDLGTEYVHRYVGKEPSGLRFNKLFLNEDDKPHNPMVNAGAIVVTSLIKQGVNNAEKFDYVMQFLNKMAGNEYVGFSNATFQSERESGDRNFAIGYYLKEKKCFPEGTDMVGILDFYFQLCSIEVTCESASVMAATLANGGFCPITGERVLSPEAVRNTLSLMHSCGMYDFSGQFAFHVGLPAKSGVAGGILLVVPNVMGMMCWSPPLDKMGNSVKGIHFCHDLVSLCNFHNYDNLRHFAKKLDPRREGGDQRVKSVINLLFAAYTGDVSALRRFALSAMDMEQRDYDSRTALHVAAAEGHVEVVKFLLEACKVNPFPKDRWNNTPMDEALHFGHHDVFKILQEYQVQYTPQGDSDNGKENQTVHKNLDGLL
# Ataxin-2 (Homo sapiens) = Ataxin-2 (Homo sapiens) (UniProt Q99700); experiment: qHTS for Inhibitors of ATXN expression.; type: functional
# [8] = target: Guanine nucleotide-binding protein G(s) subunit alpha isoforms short (Homo sapiens) (UniProt P63092); experiment: qHTS for Antagonists of gsp, the Etiologic Mutation Responsible for Fibrous Dysplasia/McCune-Albright Syndrome: qHTS.; type: functional
# [9] = qHTS for induction of synthetic lethality in tumor cells producing 2HG: qHTS for the HT-1080-IDH1KD cell line.; type: functional
smiles,measurement,setting,value
Cc1cc(C)cc(OP(C)(=O)Nc2ccc(SC(F)(F)F)cc2)c1 (stereo not drawn),Potency,[1],inactive
C=CCN1CCN(CCOC(=O)C(O)(c2ccccc2)c2ccccc2)CC1,Potency,[2],inactive
same,Potency,[3],active: 79.4 µM
same,Potency,[4],active: 44.7 µM
COc1ccc(OP(C)(=O)Nc2cccc(Br)c2)cc1 (stereo not drawn),Potency,[5],inactive
COc1ccc2c(c1O)-c1c(O)c(OC)cc3c1[C@H](C2)[N+](C)(C)CC3.O=[N+]([O-])c1cc([N+](=O)[O-])c(O)c([N+](=O)[O-])c1[O-],Potency,[6],inactive
same,Potency,[7],inactive
same,Potency,Ataxin-2 (Homo sapiens),active: 35.5 µM
CC(C)N1C(=O)CC2(CCN(CCOC(=O)C(O)(c3ccccc3)c3ccccc3)CC2)C1=O,Potency,[8],inactive
O=[N+]([O-])c1cc([N+](=O)[O-])c(NCC2CCS(=O)(=O)C2)c([N+](=O)[O-])c1 (stereo not drawn),Potency,[9],active: 18.4 µM
CC1=C[C@H]2O[C@@H]3[C@H](O)[C@@H](O)[C@](C)([C@@]2(O)CC1)[C@]31CO1,GI50,P388/ADR,active: 0.258 µM
same,GI50,SN12K1,active: 0.193 µM
same,GI50,P388,active: 0.0867 µM
